SMILES strings stand for the structures. Only a part is listed here, and it is no random draw. Some salts or complexes appear as unconnected parts, following the source record. The source made the active and inactive calls.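 How the source made its calls: active means B-score of the integrated calcium signal more than 4 SD below the library mean, with starting fluorescence not abnormally high; inactive means the rest.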

This experiment in a line: enhancers of RGS4 function in calcium signaling – cell-based, HEK293 M3R inducible RGS4, calcium flux, primary screen (AID 463111).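 On B-score: negative B-score means reduced calcium response which marks RGS4 activation or potentiation.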 As to conditions: HEK293 M3R/inducible RGS4, carbachol calcium flux Fluo4, at 10 µM; stronger effect = lower value. The essentials:
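Material: Inducible-RGS4 HEK293 cells carrying M3 receptor; also added: carbachol at ECmax as muscarinic agonist stimulus; incubation: compound preincubation 20 min at room temperature before agonist; signal: Fluo4-AM (2 µM) calcium-flux fluorescence, kinetic read; measure: integrated calcium ratio converted to B score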
For orientation: A change in cytosolic calcium serves as a functional read-out for many receptors and channels.
Turning to `C[C@H]1OP(=O)(Oc2ccccc2)[C@H](O)[C@H](O)[C@H]1N=[N+]=[N-]` (some centres not stated), the outcome was inactive. On to `CN(C)CCOC(=O)C(O)(c1ccccc1)C1CCCCC1` (configuration not stated), for which the B-score is active: -9.38.

Take `O=P(Nc1nc2ccccc2s1)(c1ccccc1)c1ccccc1`: the result was inactive. Same read-out and setting: the same measure for `O=P(Nc1ccccn1)(c1ccc(Br)cc1)c1ccc(Br)cc1`: “inactive”. For the compound `CN(C)C1(CNC(=O)c2ccc(Cl)c(S(N)(=O)=O)c2)CCCCC1`, the outcome was inactive. On the same count and under the same terms, in the case of `COc1ccc(OP(C)(=O)Nc2cccc(Br)c2)cc1` (configuration not stated) it was “inactive”; in that of `CP(=O)(Nc1ccc2c(c1)OCCO2)Oc1ccccc1` (configuration not stated), “inactive”; in that of `c1nnnn1CCn1cnnn1`, “inactive”.

With `CCOP(C)(=S)SCC(=O)NC(C)(CC)C(=O)O` (configuration not stated), the outcome was inactive. `CC(C)C(=O)NC(Sc1ccccc1)C(Cl)(Cl)Cl` (configuration not stated): the outcome was inactive. For `O=P(Nc1nccs1)(c1ccccc1)c1ccccc1`, the outcome was inactive. Take `CP(=O)(Nc1ccc(SC(F)(F)F)cc1)Oc1ccc(F)cc1` (configuration not stated): the outcome was inactive. Still for that read-out and setting: in the case of `CC(=O)Nc1ccc(Oc2c([N+](=O)[O-])cc([N+](=O)[O-])cc2[N+](=O)[O-])cc1` it was “inactive”. For the compound `CC(=O)Nc1ccc([As](=O)(O)O)c(O)c1`, the result was inactive. Turning to `COc1ccc2c(c1O)-c1c(O)c(OC)cc3c1[C@H](C2)[N+](C)(C)CC3.O=[N+]([O-])c1cc([N+](=O)[O-])c([O-])c([N+](=O)[O-])c1[O-]`, the outcome was inactive. Turning to `C[C@H]1OP(=O)(Oc2ccccc2)C[C@@H]2O[C@@H]21` (some centres not stated), the outcome was inactive. With `C[C@@H]1C=CCP(=O)(Oc2ccccc2)O1` (some centres not stated), the outcome was inactive.

Take `O=C(OCCN1CCN(CCOCc2ccccc2)CC1)C(O)(c1ccccc1)c1ccccc1`: the result was inactive. Consider `O=C(OC1CN2CCC1CC2)c1ccc([N+](=O)[O-])cc1` (configuration not stated), for which the result was inactive. With `CC(=O)c1ccc(N2CC2c2ccncc2)cc1` (configuration not stated), the result was inactive. Still for that read-out and setting: in the case of `CC(C)c1ccc(OP(C)(=O)Nc2ccc(SC(F)(F)F)cc2)cc1` (configuration not stated) it was “inactive”; in that of `CC(C)(C)C(=O)NC(Sc1ccccc1)C(Cl)(Cl)Cl` (configuration not stated), “inactive”. Consider `CP(=O)(Nc1ccccc1F)Oc1ccccc1` (configuration not stated), for which the outcome was inactive. For `CCOc1ccc(C2=NCC(CBr)S2)cc1` (configuration not stated), the outcome was inactive. Still for that read-out and setting: the same measure for `O=P1(Nc2nc3ccc(Cl)cc3s2)COc2ccccc2O1` (configuration not stated): “inactive”; for `O=[N+]([O-])c1cc([N+](=O)[O-])c(OC2CCCCC2O)c([N+](=O)[O-])c1` (configuration not stated): “inactive”; for `CCCCCOc1ccc(NP(C)(=O)Oc2ccc(Cl)cc2Cl)cc1` (configuration not stated): “inactive”. For the compound `CN(C)C(=O)Oc1noc2ccccc12`, the outcome was inactive. Take `CP(=O)(Nc1ccccc1)Oc1ccc(F)cc1` (configuration not stated): the result was inactive. As to `CCN(CC)CCCOC(=O)C(O)(c1ccccc1)C1CCCCC1` (configuration not stated), the B-score was active: -7.6. Consider `CCC(=O)N1C2C3N(C(=O)CC)C1C1N(C(=O)CC)C(C(N1C(=O)CC)N3C(=O)CC)N2C(=O)CC`, for which the result was inactive. On to `O=C(OC1CN2CCC1CC2)c1ccccc1` (configuration not stated), for which the result was inactive. In the case of `Cc1ccc(OP(=O)(Nc2ccccn2)Oc2ccc(C)cc2)cc1`, the outcome was inactive. For `CC(=O)NC(SC(=S)N(CC(C)C)CC(C)C)C(Cl)(Cl)Cl` (configuration not stated), the outcome was inactive.

With `COC(=O)c1cc2c(s1)N=C(c1ccccc1)N(C)P2(=O)N1CCOCC1` (configuration not stated), the outcome was inactive. In the case of `COc1ccc(OP(C)(=O)Nc2ccc(SC(F)(F)F)cc2)cc1` (configuration not stated), the outcome was inactive. Regarding `CCOC(=O)c1ccc(NP(C)(=O)Oc2ccc(F)cc2)cc1` (configuration not stated), the result was inactive.

In the case of `CCOC(=O)NC(Sc1ccccc1)C(Cl)(Cl)Cl` (configuration not stated), the outcome was inactive. In the case of `Cc1ccc(NP(=O)(Oc2cccc(C)c2)Oc2cccc(C)c2)nc1`, the result was inactive. Still for that read-out and setting: in the case of `c1ccc(-c2nn[nH]n2)c(-c2nn[nH]n2)c1` it was “inactive”. Consider `CCNC(=S)/N=C(\N)N[N+](=O)[O-]`, for which the outcome was inactive.

For `O=C(NC1CCS(=O)(=O)C1)NP(=S)(Oc1ccccc1)Oc1ccccc1` (configuration not stated), the result was inactive. As to `CCOP1(=S)c2c(C)nn(CCC#N)c2N=C(c2ccc(F)cc2)N1C` (configuration not stated), the outcome was inactive.

Take `N#CCCN(C(=O)COC(=O)C(O)(c1ccccc1)c1ccccc1)c1ccc(F)cc1`: the result was inactive. Turning to `CC1=NCCc2c1[nH]c1ccccc21.O=[N+]([O-])c1cc([N+](=O)[O-])c(O)c([N+](=O)[O-])c1`, the result was inactive. Same read-out and setting: in the case of `CN(C(=O)Cc1ccc(Cl)c(Cl)c1)[C@H]1CC[C@@]2(CCCO2)C[C@@H]1N1CCCC1` it was “inactive”.

For the compound `O=[N+]([O-])c1ccc2c(c1)nnn2O`, the result was inactive. For `CN(C)C(=O)c1cc([N+](=O)[O-])cc2c1-c1c(cc([N+](=O)[O-])cc1[N+](=O)[O-])C2=O`, the outcome was inactive.

Consider `NC(=O)Nc1ccc([As](=O)(O)O)cc1`, for which the result was inactive.

On to `Nc1ccccc1[As](=O)(O)c1ccccc1`, for which the result was inactive. With `O=C(O)COc1ccc([As](=O)(O)O)cc1[N+](=O)[O-]`, the result was inactive. With `O=P(Nc1nccs1)(Oc1ccccc1)Oc1ccccc1`, the outcome was inactive.

Regarding `O=P(Nc1nccs1)(c1ccccc1)c1nc2ccccc2s1` (configuration not stated), the result was inactive. As to `CCOP1(=S)c2c(C)nn(CCC#N)c2N=C(c2ccccc2F)N1C` (configuration not stated), the outcome was inactive. As to `O=C(O)c1cccc(Nc2c([N+](=O)[O-])cc([N+](=O)[O-])cc2[N+](=O)[O-])c1`, the outcome was inactive. Turning to `CS(=O)(=O)c1cc([N+](=O)[O-])c2no[n+]([O-])c2c1`, the result was inactive. On the same count and under the same terms, in the case of `CCOP(=O)(Nc1cccc2ccccc12)OCC` it was “inactive”; in that of `Nc1cccc2c([As](=O)(O)O)cccc12`, “inactive”; in that of `Cc1ccc(NCCc2c([N+](=O)[O-])cc([N+](=O)[O-])cc2[N+](=O)[O-])cc1`, “inactive”. The same measure, in the same setting: in the case of `Cc1cc(C)cc(OP(C)(=O)Nc2ccccn2)c1` (configuration not stated) it was “inactive”; in that of `CP(=O)(Nc1cccc(Br)c1)Oc1ccccc1` (configuration not stated), “inactive”. For `Cc1ccc(C)c(NP(C)(=O)Oc2ccccc2)c1` (configuration not stated), the result was inactive. The same measure, in the same setting: in the case of `CCCOP(=S)(Nc1nc(N)cc(=O)[nH]1)OCCC` it was “inactive”; in that of `Cc1cc(C)cc(OP(C)(=O)Nc2ccc(C)cc2C)c1` (configuration not stated), “inactive”; in that of `Cc1cccc(OCC(=O)OC2CN3CCC2CC3)c1` (configuration not stated), “inactive”. Still for that read-out and setting: in the case of `O=[As](O)(c1cccc(O)c1)c1cccc(O)c1` it was “inactive”; in that of `CCOC(=O)c1ccc(NP(C)(=O)Oc2cc(C)cc(C)c2)cc1` (configuration not stated), “inactive”; in that of `CS(=O)(=O)c1ccc(Cl)c(NC(=O)COC(=O)C(O)(c2ccccc2)c2ccccc2)c1`, “inactive”. With `COc1ccccc1OP(C)(=O)Nc1cccc(Br)c1` (configuration not stated), the outcome was inactive.

Consider `O=[As](O)(O)c1cccnc1`, for which the result was inactive. In the case of `COc1cc(C(=O)NCC2(N3CCOCC3)CCCCC2)cc(Cl)c1OC(C)C`, the outcome was inactive. As to `CC(C)/C=N\N=C(\N)N[N+](=O)[O-]`, the result was inactive. Same read-out and setting: in the case of `CN(C(=O)Cc1ccc(Cl)c(Cl)c1)[C@@H]1CCCC[C@H]1N1CCCC1` it was “inactive”; in that of `CC1(CBr)Cn2c(nc3ccccc3c2=O)S1` (configuration not stated), “inactive”; in that of `O=[As](O)(c1ccccc1Br)c1ccccc1Br`, “inactive”.

In the case of `O=[N+]([O-])c1cc([N+](=O)[O-])c(-c2cnn(-c3ccccc3)c2)c([N+](=O)[O-])c1`, the outcome was inactive. For `COc1ccccc1CNC(=O)COC(=O)C(O)(c1ccccc1)c1ccccc1`, the result was inactive.

As to `CC(C)(C)C(=O)NC(Sc1ncccn1)C(Cl)(Cl)Cl` (configuration not stated), the outcome was inactive. On the same count and under the same terms, in the case of `Clc1n[nH]nc1-c1nn[nH][15n]1` it was “inactive”; in that of `O=[N+]([O-])c1cc([N+](=O)[O-])c(-n2nnc3ccccc32)c([N+](=O)[O-])c1`, “inactive”; in that of `CCOP(=O)(NC(=NC(C)c1ccccc1)NC(C)c1ccccc1)OCC` (configuration not stated), “inactive”. `O=P1(Nc2ccccn2)COc2ccccc2OC1`: the result was inactive. Regarding `CCC1=CC2Cc3nc4ccc(Cl)cc4c(N)c3C(C1)C2` (configuration not stated), the result was inactive. Same read-out and setting: in the case of `CCOP(=O)(Nc1ccc(C)cn1)OCC` it was “inactive”; in that of `CN(CCCl)Cc1cc(Cl)c(NC2=NCCN2)c(Cl)c1`, “inactive”; in that of `CCCOc1ccc(NP(C)(=O)Oc2ccc(Cl)cc2)cc1` (configuration not stated), “inactive”.

For `Nc1cccc([As](=O)(O)c2ccccc2)c1`, the outcome was inactive.

Regarding `CP(=O)(Nc1ccc(SC(F)(F)F)cc1)Oc1ccccc1` (configuration not stated), the outcome was inactive.

`O=[As](O)(c1cccs1)c1cccs1`: the outcome was inactive. As for `Cc1ccc(OCC(=O)OC2CN3CCC2CC3)cc1` (configuration not stated), the result was inactive. As for `O=P1(Nc2ccc(Br)cn2)COc2ccccc2OC1`, the outcome was inactive. Consider `COc1ccccc1OP(C)(=O)Nc1c(C)cccc1C` (configuration not stated), for which the outcome was inactive. Regarding `CN1CCCCC1COC(=O)C1(O)c2ccccc2CCc2ccccc21` (configuration not stated), the B-score was active: -7.78. Consider `O=P1(Nc2ncccn2)COc2ccccc2OC1`, for which the result was inactive. On the same count and under the same terms, in the case of `CCOC(=O)C(CC)C1=NC(C)(C)Cc2ccccc21.O=[N+]([O-])c1cc([N+](=O)[O-])c(O)c([N+](=O)[O-])c1` (configuration not stated) it was “inactive”; in that of `CN(C)C1(CNC(=O)c2ccc(S(C)(=O)=O)cc2)CCCCC1`, “inactive”. Same read-out and setting: the same measure for `O=[N+]([O-])c1cc([N+](=O)[O-])c(Nc2nnnn2CCO)c([N+](=O)[O-])c1`: “inactive”; for `O=C(/C=C/c1ccccc1)OC1CN2CCC1CC2` (configuration not stated): “inactive”; for `CC1CCC(C(C)C)C(OP(=O)(Nc2ccccn2)c2ccccc2)C1` (configuration not stated): “inactive”. Turning to `Cc1ccc(C(=O)OC2CN3CCC2CC3)cc1` (configuration not stated), the outcome was inactive. As to `Cc1nn(-c2ccccc2)c2c1P(=O)(N1CCOCC1)N(C)C(c1ccccc1)=N2` (configuration not stated), the outcome was inactive. Same read-out and setting: in the case of `COc1cc(C2NCCC3(OCCO3)C2(C)C)cc(OC)c1OC.O=[N+]([O-])c1cc([N+](=O)[O-])c(O)c([N+](=O)[O-])c1` (configuration not stated) it was “inactive”. For the compound `COc1ccccc1OP(C)(=O)Nc1ccccc1` (configuration not stated), the result was inactive.

As for `O=P(Nc1ccccn1)(c1cccc2ccccc12)c1cccc2ccccc12`, the result was inactive. On to `Cc1cc(SC(NC=O)C(Cl)(Cl)Cl)ncn1` (configuration not stated), for which the outcome was inactive. As for `O=[N+]([O-])c1ccc(Nc2ccc(Oc3ccc([N+](=O)[O-])cc3[N+](=O)[O-])cc2)c([N+](=O)[O-])c1`, the result was inactive. On to `CP(=O)(Nc1ccccc1Br)Oc1ccccc1` (configuration not stated), for which the outcome was inactive.

With `CP(=S)(Nn1cnnc1)Oc1ccccc1` (configuration not stated), the outcome was inactive. `CCOC(=O)Nc1cccc([As](=O)(O)O)c1`: the result was inactive. In the case of `Cc1cc(SC(NC(=O)c2ccccc2)C(Cl)(Cl)Cl)nc(C(C)C)n1` (configuration not stated), the outcome was inactive.

With `CCCCOc1ccc(C(=O)NCC2(N3CCCCC3)CCCCC2)cc1OC`, the outcome was inactive. On to `CCOC(=O)Nc1ccc([As](=O)(O)O)c(O)c1`, for which the outcome was inactive.

These data come from PubChem BioAssay AID463111 (Johns Hopkins Ion Channel Center, 2010).
